Test results from US20110195432A1, “METHODS FOR THE SELECTION OF THERAPEUTIC TREATMENTS FOR CANCER” (priority 2008, published 2011).

Biological target: T1, recombinant HDAC6 (Homo sapiens, UniProt Q9UBN7)
T1 sequence (Q9UBN7 1-1215): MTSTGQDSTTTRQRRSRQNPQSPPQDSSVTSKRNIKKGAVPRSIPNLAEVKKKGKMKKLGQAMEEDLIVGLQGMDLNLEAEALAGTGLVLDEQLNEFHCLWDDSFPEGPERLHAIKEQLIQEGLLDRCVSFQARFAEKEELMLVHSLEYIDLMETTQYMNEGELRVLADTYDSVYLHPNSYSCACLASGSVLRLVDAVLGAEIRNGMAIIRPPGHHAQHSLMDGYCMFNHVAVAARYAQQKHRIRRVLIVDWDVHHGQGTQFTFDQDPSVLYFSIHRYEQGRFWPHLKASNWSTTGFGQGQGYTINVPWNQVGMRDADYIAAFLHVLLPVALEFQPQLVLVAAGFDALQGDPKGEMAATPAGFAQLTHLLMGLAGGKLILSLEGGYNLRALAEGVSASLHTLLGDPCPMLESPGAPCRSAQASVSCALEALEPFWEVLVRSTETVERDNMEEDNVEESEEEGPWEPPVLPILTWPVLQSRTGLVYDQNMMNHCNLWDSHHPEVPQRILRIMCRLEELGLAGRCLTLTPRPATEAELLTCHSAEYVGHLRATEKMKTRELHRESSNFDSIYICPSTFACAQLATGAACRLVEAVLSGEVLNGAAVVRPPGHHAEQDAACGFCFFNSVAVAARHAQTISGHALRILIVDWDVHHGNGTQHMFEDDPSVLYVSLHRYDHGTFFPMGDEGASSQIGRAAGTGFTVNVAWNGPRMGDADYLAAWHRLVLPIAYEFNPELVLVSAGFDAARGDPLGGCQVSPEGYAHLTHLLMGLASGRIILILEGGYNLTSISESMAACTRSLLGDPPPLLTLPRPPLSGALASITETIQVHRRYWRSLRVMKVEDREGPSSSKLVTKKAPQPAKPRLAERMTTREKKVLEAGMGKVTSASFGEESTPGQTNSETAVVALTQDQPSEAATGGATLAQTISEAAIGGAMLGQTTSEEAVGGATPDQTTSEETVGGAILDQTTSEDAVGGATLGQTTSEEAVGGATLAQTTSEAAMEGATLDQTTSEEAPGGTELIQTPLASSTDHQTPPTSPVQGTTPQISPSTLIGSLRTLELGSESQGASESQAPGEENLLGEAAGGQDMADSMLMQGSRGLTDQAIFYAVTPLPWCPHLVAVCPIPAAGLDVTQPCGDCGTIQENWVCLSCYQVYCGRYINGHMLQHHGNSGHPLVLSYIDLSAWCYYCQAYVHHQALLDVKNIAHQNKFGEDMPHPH
Conditions: cell-free; 7.5 or 15 μM sulforaphane, or 400 nM TSA; versus vehicle-treated HDAC6 control

For `CC(/C=C/C(=O)NO)=C\[C@@H](C)C(=O)c1ccc(N(C)C)cc1` [TSA, trichostatin A], the “HDAC6 deacetylase activity on tubulin” value was “decreased HDAC6 deacetylase activity”.
